Measured values from patent US9708318B2, “Bicyclic heterocycles as FGFR4 inhibitors” (Incyte Corporation, priority 2015, dated 2017).

Chains of the proteins cited; added tags and fusions are not shown. Residues count along the entry.
UniProt P11362, 22-822: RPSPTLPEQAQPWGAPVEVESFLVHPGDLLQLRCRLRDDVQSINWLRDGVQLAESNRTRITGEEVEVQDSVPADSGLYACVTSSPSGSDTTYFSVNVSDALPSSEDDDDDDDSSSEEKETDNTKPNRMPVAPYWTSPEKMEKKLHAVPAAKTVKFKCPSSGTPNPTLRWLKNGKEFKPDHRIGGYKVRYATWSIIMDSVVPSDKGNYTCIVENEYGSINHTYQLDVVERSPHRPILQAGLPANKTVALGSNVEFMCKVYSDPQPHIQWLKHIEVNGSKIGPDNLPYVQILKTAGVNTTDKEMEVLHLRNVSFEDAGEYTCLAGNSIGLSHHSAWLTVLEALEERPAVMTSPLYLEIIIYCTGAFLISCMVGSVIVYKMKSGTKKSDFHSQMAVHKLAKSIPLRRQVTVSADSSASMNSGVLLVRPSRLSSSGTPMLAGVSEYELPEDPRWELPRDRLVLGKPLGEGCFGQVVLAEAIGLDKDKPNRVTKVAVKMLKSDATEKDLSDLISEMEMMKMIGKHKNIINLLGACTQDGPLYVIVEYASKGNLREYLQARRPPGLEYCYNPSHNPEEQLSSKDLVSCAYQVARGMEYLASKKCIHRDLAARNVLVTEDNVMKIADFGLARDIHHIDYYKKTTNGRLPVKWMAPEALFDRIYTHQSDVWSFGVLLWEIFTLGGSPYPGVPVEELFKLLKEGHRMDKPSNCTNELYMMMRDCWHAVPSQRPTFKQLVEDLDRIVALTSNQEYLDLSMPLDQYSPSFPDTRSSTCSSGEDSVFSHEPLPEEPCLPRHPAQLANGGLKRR
UniProt P22455, 22-802: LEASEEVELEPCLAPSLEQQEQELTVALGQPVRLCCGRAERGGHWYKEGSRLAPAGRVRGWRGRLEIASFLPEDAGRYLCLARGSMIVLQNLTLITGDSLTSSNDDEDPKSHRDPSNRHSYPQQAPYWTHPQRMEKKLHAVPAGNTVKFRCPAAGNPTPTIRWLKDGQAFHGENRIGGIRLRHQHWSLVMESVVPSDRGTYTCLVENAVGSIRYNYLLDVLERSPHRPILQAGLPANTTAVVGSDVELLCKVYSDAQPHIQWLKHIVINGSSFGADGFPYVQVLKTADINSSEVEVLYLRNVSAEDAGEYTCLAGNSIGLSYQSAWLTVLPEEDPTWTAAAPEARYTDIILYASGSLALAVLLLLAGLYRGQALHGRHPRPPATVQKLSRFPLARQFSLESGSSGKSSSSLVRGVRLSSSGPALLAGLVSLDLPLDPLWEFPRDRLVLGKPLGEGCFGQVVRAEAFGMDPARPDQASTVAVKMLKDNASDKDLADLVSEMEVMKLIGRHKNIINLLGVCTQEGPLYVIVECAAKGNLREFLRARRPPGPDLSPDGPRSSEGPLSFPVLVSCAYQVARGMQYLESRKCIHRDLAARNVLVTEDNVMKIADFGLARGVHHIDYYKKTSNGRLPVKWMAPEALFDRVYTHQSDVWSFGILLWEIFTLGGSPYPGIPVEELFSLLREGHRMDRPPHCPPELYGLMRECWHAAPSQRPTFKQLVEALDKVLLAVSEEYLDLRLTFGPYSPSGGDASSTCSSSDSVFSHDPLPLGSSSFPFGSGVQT

Key:
FGFR1 = FGFR1 (Homo sapiens (Human), UniProt P11362); experiment: FGFR Enzymatic Assay (FRET peptide phosphorylation), FGFR1; conditions: FGFR1 IC50 (nM), pre-incubated for 4 hours
FGFR4 = FGFR4 (Homo sapiens (Human), UniProt P22455); experiment: FGFR Enzymatic Assay (FRET peptide phosphorylation), FGFR4; type: biochemical
Method: The inhibitor potency of the exemplified compounds was measured in an enzyme assay that measures peptide phosphorylation using FRET measurements to detect product formation. Inhibitors were serially diluted in DMSO and a volume of 0.5 μL was transferred to the wells of a 384-well plate.
The enzymes were purchased from Millipore or Invitrogen.
GraphPad prism3 was used to analyze the data.

COc1cc(OC)c(F)c(N2Cc3cnc(-c4cn(C)nc4C)cc3N(c3cccc(C#N)c3)C2=O)c1F [Example 60, 3-(3-(2,6-difluoro-3,5-dimethoxyphenyl)-7-(1,3-dimethyl-1H-pyrazol-4-yl)-2-oxo-3,4-dihydropyrido[4,3-d]pyrimidin-1(2H)-yl)benzonitrile] gave an IC50 (FGFR1) of 30 to 200 nM and a pIC50 (FGFR4) of 6.70 to 7.52.

pIC50: −log10 of the molar value.
